# Laboratory results reported in US20130149757A1 (OPTINOL, INC., priority 2011, published 2013).
# Legend:
# [1] = 16 g/L butanol starting concentration, 20% v/v corn oil
# bacterial cells = conditions: traditional ABE fermentation; cited from earlier work
# [2] = Liquid-liquid extraction with corn oil (Karr extractor); assay type: physicochemical
# Method: Two runs were conducted, each with a different flow rate.
substance,measurement,setting,value
n-butanol,butanol removed from solution,[1],34%
same,level of butanol not exceeded before the fermentation broth becomes toxic to the organism,bacterial cells,~16000 µg/mL
same,"% extraction, Run 1",[2]; flow rate feed 26 ml/min,35.6%
same,"% extraction, Run 2",[2]; flow rate feed 39 ml/min,31.5%
same,extraction in this set up,[2]; summary comment,around 30%
